In ChEMBL document CHEMBL1255389, “Exploiting the drug-activating properties of a novel trypanosomal nitroreductase” (Antimicrob Agents Chemother, 2010):

Test system: THP-1
Assay: Cytotoxicity against human THP1 cells after 6 days by Alamar blue assay
Type: cell-based

`O=C(OCc1ccc([N+](=O)[O-])cc1)N(CCCl)CCCl` was tested, and the IC50 was 64.8 µM.
